Read-outs that look alike come from different tables or passages of the source.
Tests used:
HT29 cells = experiment: Emergence of resistance to encorafenib in HT29 cells (FIGS. 5-8); format: cell-based; details: antibody added to culture medium with encorafenib 10 μM; 0.1 and 1.0 ng/mL EGF; 90 days
Protocol: FIGS. 5A-B are graphs that show the emergence of resistance to Encorafenib in the HT29 cell line across an incubation time of 3 weeks and measured by the percentage of cell viability. Cells were treated with 5 μM Encorafenib (FIG. 5A) or 10 μM Encorafenib (FIG. 5B) and incubated with EGF at 0.0 ng/mL, 0.1 ng/mL, Ing/mL, and 10 ng/mL. The percentage of positive wells having viable cells rose and leveled off during weeks 1-3, with higher percentages of positive wells associated with higher concentrations of EGF (FIG. 5A).
FIGS. 6A-B are graphs that show the emergence of resistance to Encorafenib in the HT29 cell line across an incubation time of 15 weeks and measured by the percentage of cell viability. […]
FIGS. 7A-B are graphs that show the emergence of resistance to Encorafenib in the HT29 cell line across an incubation time of 15 weeks and measured by the percentage of cell viability. […]
FIGS. 8A-B are graphs that show the emergence of resistance to 10 μM Encorafenib in the HT29 cell line with an incubation time of 90 days and measured by the percentage of tumor cell-free wells. […]

PC9 xenografts = details: cited from earlier work
[1] = system: pEGFR(Tyr1068), pAKT(Ser473), pERK(Thr 202/Tyr 204) in HT29 cells; experiment: Western blot of total and phosphorylated EGFR, AKT, ERK in HT29 cells with EGF, 2 hours (FIG. 3); format: cell-based; details: HT29, presence of EGF, 0.05 μM
Protocol: C in the first lane stands for a control, non-treated cell line sample. The second lane is the same control cell receiving EGF at 0.05 µM and in combination with EGF, cells were separately treated with antibody (anti-IN01 antibodies recognizing EGF), Cetuximab, Encorafenib, the combination antibody (anti-IN01) and Encorafenib, and the combination Cetuximab and Encorafenib.
The effects of anti-IN01, alone and in combination with encorafenib was compared to cetuximab alone, encorafenib alone and a combination of cetuximab and encorafenib at a 0.05 μM concentration of each in HT29 cells in the presence of EGF for 2 hours. The changes of total and phosphorylated proteins that indicate cell viability were determined by Western blot in duplicate (FIG. 3) At this concentration, the there was some reduction in signal for pERK, pAKT compared to ERK and AKT for all combinations and inhibitors alone. […] C in the first lane stands for control, non-treated cell line sample. Second lane is same control cell receiving EGF

[2] = cited from earlier work
[3] = system: pErk1/2, pAkt, EGFR, STAT3, AXL in EGFR-mut cells; details: cited from earlier work
[4] = system: EGFR-wt, head and neck cancer cell lines, and subcutaneous tumors; details: cited from earlier work

For “Cetuximab: anti-EGFR monoclonal antibody”, the “emergence of resistant clones to encorafenib” value (HT29 cells) is listed as “delay observed”, the “enhancement of the effects of gefitinib” value (PC9 xenografts) is listed as “failed to enhance” and the “signal between EGFR and pEGFR” value [1] is listed as “most pronounced reduction in signal”. For the same substance, the objective response ([2]; patients with KRAS mutation) was “none”, the objective response ([2]; patients with wild-type KRAS tumor status) was 27 of 66 and the median overall survival ([2]; wild-type KRAS tumor status versus KRAS mutations) was “significantly longer”. For the same substance, the “effect on EGFR downstream signaling” value ([3]; H3255 or DFCILU-011) was “relatively little effect”, the “ligand-induced EGFR, Erk1/2, and Akt phosphorylation” value ([3]; PC9 and H1975 cells) was “prevent” and the “levels of total EGFR” value ([3]; after 1 to 2 hours of incubation, PC9, H1975 or H3255) was “markedly decrease”. The “induction of apoptosis and tumor regression” value [4] was “amplify”.
